Results taken from PMC5161541 (Nuclear medicine and biology, 2016).

The chains behind the UniProt entries cited, without tags or fusion partners.
UniProt O55242, whole entry: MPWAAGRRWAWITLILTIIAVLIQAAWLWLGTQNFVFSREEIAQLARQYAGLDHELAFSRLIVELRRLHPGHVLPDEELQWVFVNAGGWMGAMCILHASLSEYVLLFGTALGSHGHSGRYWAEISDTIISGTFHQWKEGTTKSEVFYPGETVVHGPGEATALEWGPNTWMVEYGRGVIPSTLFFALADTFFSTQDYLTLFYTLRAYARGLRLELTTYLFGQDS

Biological target: sites labeled by [125I]-E-IA-BF-PIPZE (σ1 receptors) (Mus musculus, UniProt O55242)
Assay type: binding

SMILES: CC(C)=CCN1CC[C@]2(C)c3cc(O)ccc3C[C@H]1[C@H]2C [(+)-Pentazocine, (+)-pentazocine]
- IC50: 13.7 ± 1.4 nM
- Ki: 8.1 ± 0.8 nM
